Measured values reported in article PMC5101583, “Natural and non-natural amino-acid side-chain substitutions: affinity and diffraction studies of meditope–Fab complexes” (Acta Crystallographica. Section F, Structural Biology …, 2016).

Tested on: cetuximab
Assay: Surface plasmon resonance (Biacore T100) binding kinetics of meditope variants to immobilized cetuximab IgG
[1] = SPR, approximate value (k a and/or k d are outside the measurement range for the Biacore T100)

With `CC(C)C[C@@H]1NC(=O)[C@H](CCCNC(=N)N)NC(=O)[C@H](CCCNC(=N)N)NC(=O)[C@H]([C@@H](C)O)NC(=O)[C@H](CO)NC(=O)[C@H](C(c2ccccc2)c2ccccc2)NC(=O)[C@H](CC(=O)O)NC(=O)[C@H](Cc2ccccc2)NC(=O)[C@H](CCC(N)=O)NC(=O)[C@@H](N)CSSC[C@@H](C(=O)O)NC(=O)[C@H](CCCCN)NC1=O` [L5A(Ph)2] the “off-rate relative to that of the original meditope (times faster)” value (SPR k d relative to cQFD) was “approximately fivefold”, the k a (SPR, Biacore T100, cetuximab IgG amine-coupled on CM5 chip (~5000 RU), 30 µl min^−1, HBS-EP+ pH 7.4) was 13 M^−1 s^−1 × 10^4 and the k d (SPR, Biacore T100, cetuximab IgG on CM5 chip, HBS-EP+ pH 7.4) was 0.068 s⁻¹. For the same molecule, the Kd (SPR, Biacore T100, cetuximab IgG on CM5 chip, HBS-EP+ pH 7.4, kinetic fit, estimated 38% error in K d) was 0.53 µM and the “reduction of the half-life of the complex” value (t = ln(2)/k d, relative to original meditope) was “approximately fivefold”.
For `CC(C)C[C@@H]1NC(=O)[C@H](CCCNC(=N)N)NC(=O)[C@H](CCCNC(=N)N)NC(=O)[C@H]([C@@H](C)O)NC(=O)[C@H](CO)NC(=O)[C@H](Cc2ccc(O)cc2)NC(=O)[C@H](CC(=O)O)NC(=O)[C@H](Cc2ccccc2)NC(=O)[C@H](CCC(N)=O)NC(=O)[C@@H](N)CSSC[C@@H](C(=O)O)NC(=O)[C@H](CCCCN)NC1=O` [L5Y], the Kd [1] was > 50 µM.
`CC(C)C[C@@H]1NC(=O)[C@H](CCCNC(=N)N)NC(=O)[C@H](CCCNC(=N)N)NC(=O)[C@H]([C@@H](C)O)NC(=O)[C@H](CO)NC(=O)[C@H](CC(C)C)NC(=O)[C@H](CC(=O)O)NC(=O)[C@H](CCC(N)=O)NC(=O)[C@H](CCC(N)=O)NC(=O)[C@@H](N)CSSC[C@@H](C(=O)O)NC(=O)[C@H](CCCCN)NC1=O` [F3Q] was tested, and the Kd [1] was > 50 µM.
In the case of `CC(C)C[C@@H]1NC(=O)[C@H](CCCNC(=N)N)NC(=O)[C@H](CCCNC(=N)N)NC(=O)[C@H]([C@@H](C)O)NC(=O)[C@H](CO)NC(=O)[C@H](CC(C)C)NC(=O)[C@H](CC(=O)O)NC(=O)[C@H](Cc2c[nH]cn2)NC(=O)[C@H](CCC(N)=O)NC(=O)[C@@H](N)CSSC[C@@H](C(=O)O)NC(=O)[C@H](CCCCN)NC1=O` [F3H], the Kd [1] is reported as > 50 µM.
